Measurements published in EP4094762A1, “TREATMENT OF NEUROLOGICAL INDICATIONS” (UCL Business Ltd, priority 2021, dated 2022).
pIC50: −log10 of the molar value.

By UniProt entry, the sequences of proteins in these tests, tags left out. Where a name states a change or a piece, a line headed by the entry shows the natural chain unless it says otherwise.
UniProt P47900: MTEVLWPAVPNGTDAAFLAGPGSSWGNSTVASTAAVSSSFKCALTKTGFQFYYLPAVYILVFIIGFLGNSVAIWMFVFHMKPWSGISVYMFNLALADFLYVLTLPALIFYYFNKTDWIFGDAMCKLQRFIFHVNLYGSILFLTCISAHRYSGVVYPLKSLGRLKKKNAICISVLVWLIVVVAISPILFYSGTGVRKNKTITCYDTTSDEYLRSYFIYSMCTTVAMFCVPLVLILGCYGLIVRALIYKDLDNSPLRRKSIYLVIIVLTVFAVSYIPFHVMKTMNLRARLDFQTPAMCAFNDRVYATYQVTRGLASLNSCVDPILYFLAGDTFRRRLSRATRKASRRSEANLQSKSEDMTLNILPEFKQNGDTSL

Legend:
P2Y1 receptor = biological target: T1, P2Y1 receptor (Homo sapiens, UniProt P47900); test: Cell based HTRF assay measuring IP1 accumulation; antagonism of the P2Y1 agonist MRS2365; details: rounded to nearest whole number
T1 construct: expressed in transfected cells
Experimental: IC50 values were determined using a cell based assay in stably transfected cells overexpressing the P2Y1 receptor. The assay system is a high throughput […] assay measuring accumulation of the intracellular messenger inositol monophosphate (IP1), generated intracellularly following activation of P2Y1.
P2Y1 overexpressing cells were maintained in T175 flasks. The day before the assay, these cells were split and 20µl cell suspension transferred to each well of white 384-well assay plates at a cell density of 0.5x10^6 cells/mL. Plates were pulse centrifuged, then incubated overnight at 37°C / 5% CO2 prior to assay.
On day of assay, medium was removed from cells and replaced with stimulation buffer. […] Positive control antagonist curves with standard compounds were included on each plate. Plates were incubated with antagonists for 1 hour prior to addition of 5nM of the agonist MRS2365, dispensed using a Bravo liquid handler. Following agonist addition, plates were incubated for 60 minutes prior to assay. Both incubations were carried out at 37°C / 5% CO2.
For the assay, IP1 accumulation was quantified using the IPOne kit according to manufacturer's instructions. In short, a standard curve was prepared for IP1 quantification, and cells lysed using kit lysis buffer. Assay reagents were added to the lysates, and incubated for 1 hour at room temperature without spinning or shaking. Plates were analysed on a BMG Pherastar plate reader, and IP1 signal generated in cells interpolated from the standard curve.

[1] = CNS penetration: intravenous cassette pharmacokinetic study, brain and plasma by LC-MS/MS; details: mouse

Row | SMILES | pIC50 (P2Y1 receptor) | Kp at 2 h ([1]; C57B16/J, in vivo, iv, 0.4 mg/kg) | CNS penetration (in words) ([1]; intravenous)
1 | O=C(Nc1ccc(F)cc1F)Nc1cccnc1Oc1ccccc1 [S66] | 5.50 |  | 
2 | O=C(Nc1ccc(F)cc1F)Nc1cccnc1Oc1cccc(C(F)(F)F)c1 [S46] | 5.97 |  | 
3 | COc1ccc(NC(=O)Nc2cccnc2Oc2cccc(C(F)(F)F)c2)cc1 [S60] | 5.62 |  | 
4 | CC(C)(C)c1ccccc1Oc1ncccc1NC(=O)Nc1ccc(OC(F)(F)F)cc1 [2 (BPTU), 1-(2-(2-(tert-butyl)phenoxy)pyridin-3-yl)-3-(4-(trifluoromethoxy)phenyl)urea] |  | 1.5 | exhibit CNS penetration
5 | CC(C)c1ccccc1Oc1ncccc1NC(=O)Nc1ccc(C(C)(C)C)cc1 [S2] | 7.28 |  | 
6 | O=C(Nc1ccc(OC(F)(F)F)cc1)Nc1cccnc1Oc1cccc(C(F)(F)F)c1 [S38] | 6.10 |  | 
7 | CC(C)c1ccccc1Oc1ncccc1NC(=O)Nc1ccc(OC(F)(F)F)cc1 [S5] | 7.19 |  | 
